In this experiment the test system is PC-12. As to the kind of experiment: Neuroprotective activity against 12.5 mM glutamate-induced toxicity in rat PC12 cells assessed as cell viability after 24 hrs by MTT assay. The experiment is classed as functional, cell-based.

For `CCCCCCCCC/C=C\CC/C=C/[C@@H](O)[C@H](CO[C@@H]1O[C@H](CO)[C@@H](O)[C@H](O)[C@H]1O)NC(=O)[C@H](O)CCCCCCCCCCCCCCCCCCCCCC`, the Activity result was “Dose-dependent effect”.

The record behind these values is ChEMBL document CHEMBL4190188, “Neuroprotective Activity of Cerebrosides from Typhonium giganteum by Regulating Caspase-3 and Bax/Bcl-2 Signaling Pathways in PC12 Cells” (J Nat Prod, 2017).
